The values that follow are results of earlier work, collected in article PMC9790683 (Birth Defects Research, 2022).

Molecules are shown by their SMILES. Like-named read-outs stand apart in the source and are kept apart here.

For this series the following is noted: ref OECD 2020, cited from earlier work.

For the molecule `CCCCC(CC)C(=O)O` (centres unmarked) [EHA, 2‐Ethylhexanoic acid], the “Human OED_max fu model” value by setting is: (from CALUX Min EC10 cell-total) 2.6 mg/kg; (from mEST HDAC inhibition, day 10 EC10) 10 mg/kg.
